Reference: PubChem BioAssay AID1984 (Sanford-Burnham Center for Chemical Genomics, 2009)
The list shows a part of the results, in another mix than the full data. Some salts and complexes are drawn in separate pieces, as the source files them; their charges need not balance. Active and inactive are the calls of the source.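 How the source made its calls: active means EGFP signal decrease of at least 30% at 10 µM or well 3 SD below plate mean, unless failing retest; inactive means the rest, including hits failing retest or dose response.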

Sequences of proteins named here, by UniProt entry; tags and fusion partners are left off. Residues count along the entry.
UniProt Q05BA5, 1-1403: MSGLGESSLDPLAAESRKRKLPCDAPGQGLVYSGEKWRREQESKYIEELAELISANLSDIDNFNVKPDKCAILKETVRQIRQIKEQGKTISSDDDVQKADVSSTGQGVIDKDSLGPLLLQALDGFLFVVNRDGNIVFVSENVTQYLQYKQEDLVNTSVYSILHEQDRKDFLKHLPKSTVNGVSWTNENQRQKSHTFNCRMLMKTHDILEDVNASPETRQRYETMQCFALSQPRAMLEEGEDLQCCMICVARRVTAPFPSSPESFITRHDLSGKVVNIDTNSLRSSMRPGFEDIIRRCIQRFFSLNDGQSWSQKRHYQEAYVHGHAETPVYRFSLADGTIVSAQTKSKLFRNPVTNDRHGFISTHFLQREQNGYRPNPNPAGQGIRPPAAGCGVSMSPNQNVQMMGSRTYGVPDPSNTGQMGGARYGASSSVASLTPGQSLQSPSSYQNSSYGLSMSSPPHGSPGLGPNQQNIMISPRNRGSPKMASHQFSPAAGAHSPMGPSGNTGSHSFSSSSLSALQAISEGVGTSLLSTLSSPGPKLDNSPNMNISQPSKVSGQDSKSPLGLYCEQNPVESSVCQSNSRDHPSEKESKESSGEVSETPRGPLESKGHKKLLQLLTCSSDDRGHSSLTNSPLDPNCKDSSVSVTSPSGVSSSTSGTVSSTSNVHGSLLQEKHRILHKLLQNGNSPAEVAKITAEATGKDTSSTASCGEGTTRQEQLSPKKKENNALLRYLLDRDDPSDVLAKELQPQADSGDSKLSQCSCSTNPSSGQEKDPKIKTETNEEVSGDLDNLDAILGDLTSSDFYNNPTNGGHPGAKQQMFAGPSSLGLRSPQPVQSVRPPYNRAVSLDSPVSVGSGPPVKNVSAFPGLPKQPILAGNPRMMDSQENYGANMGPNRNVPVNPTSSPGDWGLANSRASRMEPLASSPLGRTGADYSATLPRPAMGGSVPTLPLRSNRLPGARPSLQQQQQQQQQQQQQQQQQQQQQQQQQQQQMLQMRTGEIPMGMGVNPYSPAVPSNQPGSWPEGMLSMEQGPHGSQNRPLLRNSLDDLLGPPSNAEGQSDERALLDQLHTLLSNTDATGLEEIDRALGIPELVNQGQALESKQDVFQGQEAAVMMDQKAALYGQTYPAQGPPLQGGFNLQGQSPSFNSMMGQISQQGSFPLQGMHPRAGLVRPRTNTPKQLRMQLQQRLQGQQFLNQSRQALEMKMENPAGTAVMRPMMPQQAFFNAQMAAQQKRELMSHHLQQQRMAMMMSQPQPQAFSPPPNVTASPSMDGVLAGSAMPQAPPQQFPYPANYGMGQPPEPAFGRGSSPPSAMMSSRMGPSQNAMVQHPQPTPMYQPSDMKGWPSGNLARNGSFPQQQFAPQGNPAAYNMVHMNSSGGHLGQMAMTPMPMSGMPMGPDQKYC

The compounds below were run against p/CIP-EGFP fusion (nuclear receptor coactivator 3, mouse) (UniProt Q05BA5) (assay: p/CIP-EGFP fusion destabilizers, primary screen, fluorescence, F442A cells (AID 1984)). Settings: 16 h, at 10 µM, stronger effect = higher value.

Row | SMILES | decrease of EGFP signal
1 | COc1ccc(OP(C)(=O)Nc2cccc(Br)c2)cc1 (stereo not given) | inactive: 6.4%
2 | CN(C)CCOC(=O)C(O)(c1ccccc1)C1CCCCC1 (stereo not given) | inactive: -3.2%
3 | COc1ccc(NP(C)(=O)Oc2ccccc2OC)cc1 (stereo not given) | inactive: -4.2%
4 | O=[N+]([O-])c1ccc(OP2(=O)COCCO2)cc1 (stereo not given) | inactive: 6.3%
5 | O=[N+]([O-])c1cc([N+](=O)[O-])c(NCC2CCS(=O)(=O)C2)c([N+](=O)[O-])c1 (stereo not given) | inactive: -30.4%
6 | Cc1cc(-c2cccc3ccccc23)c(C)cn1.O=[N+]([O-])c1cc([N+](=O)[O-])c(O)c([N+](=O)[O-])c1 | inactive: -0.4%
7 | CP(=O)(Nc1ccc(SC(F)(F)F)cc1)Oc1ccc(F)cc1 (stereo not given) | inactive: 8.4%
8 | CCOP(C)(=S)SCC(=O)NC(C)(CC)C(=O)O (stereo not given) | inactive: -0.9%
9 | CP(=O)(Nc1ccc2c(c1)OCCO2)Oc1ccccc1 (stereo not given) | inactive: 7.3%
10 | Cc1ccccc1NP(C)(=O)Nc1ccccc1C | inactive: -18.4%
11 | CP(=O)(Nc1ccccc1F)Oc1ccccc1 (stereo not given) | inactive: 3.7%
12 | CC(C)c1ccc(OP(C)(=O)Nc2ccc(SC(F)(F)F)cc2)cc1 (stereo not given) | inactive: -4.2%
13 | O=C(OC1CN2CCC1CC2)c1ccc([N+](=O)[O-])cc1 (stereo not given) | inactive: -4.6%
14 | O=C(OCCN1CCN(CCOCc2ccccc2)CC1)C(O)(c1ccccc1)c1ccccc1 | inactive: 3.4%
15 | COc1ccc2c(c1O)-c1c(O)c(OC)cc3c1[C@H](C2)[N+](C)(C)CC3.O=[N+]([O-])c1cc([N+](=O)[O-])c([O-])c([N+](=O)[O-])c1[O-] | inactive: 0.4%
16 | CCOC(=O)c1ccc(NP(C)(=O)Oc2ccc(F)cc2)cc1 (stereo not given) | inactive: -34.5%
17 | COc1ccc(OP(C)(=O)Nc2ccc(SC(F)(F)F)cc2)cc1 (stereo not given) | inactive: 11.5%
18 | CCN(CC)CCCOC(=O)C(O)(c1ccccc1)C1CCCCC1 (stereo not given) | inactive: -4.4%
19 | CP(=O)(Nc1ccccc1)Oc1ccc(F)cc1 (stereo not given) | inactive: 3.2%
20 | O=[N+]([O-])c1cc([N+](=O)[O-])c(OC2CCCCC2O)c([N+](=O)[O-])c1 (stereo not given) | inactive: -16.2%
21 | CCCCCOc1ccc(NP(C)(=O)Oc2ccc(Cl)cc2Cl)cc1 (stereo not given) | inactive: 2.7%
22 | Cc1cc(C)cc(OP(C)(=O)Nc2cccc(C(F)(F)F)c2)c1 (stereo not given) | inactive: -12.5%

Row | SMILES | decrease of EGFP signal
23 | COc1ccccc1OP(C)(=O)Nc1ccc(C)c(C)c1 (stereo not given) | inactive: 3.1%
24 | COc1ccc(OP(C)(=O)Nc2ccccc2Br)cc1 (stereo not given) | inactive: -2.9%
25 | Cc1nc2ccc3ccccc3c2o1.O=[N+]([O-])c1cc([N+](=O)[O-])c(O)c([N+](=O)[O-])c1 | inactive: -3.7%
26 | CP(=O)(OCCOc1ccccc1)OCCOc1ccccc1 | inactive: 1.2%
27 | CP(=O)(Nc1ccc(Cl)cc1Cl)Oc1ccccc1 (stereo not given) | inactive: 2.5%
28 | COc1ccccc1OP(C)(=O)Nc1ccc(Br)cc1 (stereo not given) | inactive: -10%
29 | COc1ccc(OP(C)(=O)Nc2ccccn2)cc1 (stereo not given) | inactive: -8.5%
30 | CN(C)CCOC(=O)C(O)(c1ccccc1)C1CCCC1 (stereo not given) | inactive: 8.4%
31 | O=[N+]([O-])c1cc([N+](=O)[O-])c(Nc2ccccn2)c([N+](=O)[O-])c1 | inactive: -14.3%
32 | Cc1c(NP(C)(=O)Oc2ccc(C(C)C)cc2)c(=O)n(-c2ccccc2)n1C (stereo not given) | inactive: 3.2%
33 | CP(=O)(Nc1ccccn1)Oc1ccccc1 (stereo not given) | inactive: 4.2%
34 | COc1ccccc1OP(C)(=O)Nc1ccc(C)cc1C (stereo not given) | inactive: -9.6%
35 | CCc1ccc(OP(C)(=O)O)cc1 | inactive: -11.2%
36 | CCN(CC)CC(O)COC(=O)C(O)(c1ccccc1)C1CCCCC1 (stereo not given) | inactive: -10.4%
37 | COc1ccc(OP(C)(=O)Nc2ccc(Br)cc2)cc1 (stereo not given) | inactive: 1.4%
38 | COc1ccccc1OP(C)(=O)Nc1c(C)n(C)n(-c2ccccc2)c1=O (stereo not given) | inactive: -5.6%
39 | O=C(OCCCN1CCCC1)C(O)(c1ccccc1)C1CCCCC1 (stereo not given) | inactive: -2.1%
40 | CP(=O)(Oc1ccccc1)N1CCOC1=O (stereo not given) | inactive: -0.4%
41 | CCc1ccc(OP(C)(=O)Nc2cccnc2)cc1 (stereo not given) | inactive: 1.8%
42 | CC(C)(C)c1ccc(OP(C)(=O)O)cc1 | inactive: 6.6%
43 | COc1ccccc1OP(C)(=O)Nc1ccccc1Br (stereo not given) | inactive: 11.6%
44 | CP(=O)(Nc1ccc(Cl)cc1)Oc1ccc(F)cc1 (stereo not given) | inactive: -10.8%

Row | SMILES | decrease of EGFP signal
45 | CN(C)C(=O)c1c([N+](=O)[O-])cc([N+](=O)[O-])cc1[N+](=O)[O-] | inactive: 9.9%
46 | CCOC(=O)c1ccc(NP(C)(=O)Oc2ccc(Cl)cc2)cc1 (stereo not given) | inactive: 4.7%
47 | CP(=O)(OC12CC3CC(CC(C3)C1)C2)OC12CC3CC(CC(C3)C1)C2 | inactive: -4%
48 | CP(=S)(Nn1cnnc1)Oc1ccccc1 (stereo not given) | inactive: 0.3%
49 | CP(=O)(Nc1ccccc1Br)Oc1ccccc1 (stereo not given) | inactive: -1%
50 | COc1ccccc1OP(C)(=O)Nc1ccccc1 (stereo not given) | inactive: 3.9%
51 | CP(=O)(Nc1ccc(SC(F)(F)F)cc1)Oc1ccc(Cl)cc1 (stereo not given) | inactive: -8.3%
52 | Cc1cccc(C)c1OP(C)(=O)Nc1ccc(SC(F)(F)F)cc1 (stereo not given) | inactive: -6.8%
53 | CP(=O)(Oc1ccccc1)OC(c1ccccc1)C(F)(F)F (stereo not given) | inactive: 0.3%
54 | CCc1ccc(OP(C)(=O)N2CCN(c3ccc([N+](=O)[O-])cc3)CC2)cc1 (stereo not given) | inactive: -7.3%
55 | CP(=O)(NC(=O)Nc1ccccc1)Oc1ccccc1 (stereo not given) | inactive: -6.7%
56 | Cc1cc(C)cc(OP(C)(=O)Nc2ccc(SC(F)(F)F)cc2)c1 (stereo not given) | inactive: 1.6%
57 | CCOC(=O)c1ccc(NP(C)(=O)Oc2ccc(OC)cc2)cc1 (stereo not given) | inactive: 0%
58 | CCOP(C)(=S)SCC(=O)NC(C)C(=O)O (stereo not given) | inactive: -4.9%
59 | CP(=O)(Nc1ccccn1)Oc1ccc(Cl)cc1 (stereo not given) | inactive: -15%
60 | CCN(CC)CCCOC(=O)C(O)(c1ccccc1)c1ccccc1 | inactive: -11.2%
61 | O=[N+]([O-])c1ccc2c(c1)C=Nc1ccccc1O2 | inactive: 2.2%
62 | CC(C)(C)c1ccc(OP(C)(=O)Nc2ccc(SC(F)(F)F)cc2)cc1 (stereo not given) | inactive: 7.5%
63 | Cc1cccc(C)c1OP(C)(N)=O (stereo not given) | inactive: -1.5%
64 | COc1ccccc1OP(C)(=O)Nc1ccc(C)cc1 (stereo not given) | inactive: -0.1%
65 | Cc1ccc(NP(C)(=O)Oc2ccccc2)c(C)c1 (stereo not given) | inactive: -16.7%
66 | CCOC(=O)c1ccc(NP(C)(=O)Oc2ccccc2)cc1 (stereo not given) | inactive: 4.6%

Row | SMILES | decrease of EGFP signal
67 | Cc1cc(C)cc(OP(C)(N)=O)c1 (stereo not given) | inactive: -14.9%
68 | COc1ccccc1OP(C)(=O)Nc1cc(Cl)ccc1C (stereo not given) | inactive: -14.5%
69 | COc1ccc(OP(C)(=O)Nc2cccc(F)c2)cc1 (stereo not given) | inactive: 1.1%
70 | O=C(O)c1cccc(Nc2c([N+](=O)[O-])cc([N+](=O)[O-])cc2[N+](=O)[O-])c1 | inactive: -8.2%
71 | CC1=NCCc2c1[nH]c1ccccc21.O=[N+]([O-])c1cc([N+](=O)[O-])c(O)c([N+](=O)[O-])c1 | inactive: -0.4%
72 | COc1ccccc1OP(C)(=O)Nc1cccc(Br)c1 (stereo not given) | inactive: -9.7%
73 | CCOC(=O)c1ccc(NP(C)(=O)Oc2cc(C)cc(C)c2)cc1 (stereo not given) | inactive: 4.3%
74 | Cc1cc(C)cc(OP(C)(=O)Nc2ccc(C)cc2C)c1 (stereo not given) | inactive: -8.2%
75 | Cc1ccc(C)c(NP(C)(=O)Oc2ccccc2)c1 (stereo not given) | inactive: 5.7%
76 | CP(=O)(Nc1cccc(Br)c1)Oc1ccccc1 (stereo not given) | inactive: -5.8%
77 | Cc1cc(C)cc(OP(C)(=O)Nc2ccccn2)c1 (stereo not given) | inactive: -1%
78 | O=[N+]([O-])c1cc([N+](=O)[O-])c(-n2nnc3ccccc32)c([N+](=O)[O-])c1 | inactive: -9.5%
79 | Cc1nc2ccc3ccccc3c2s1.O=[N+]([O-])c1cc([N+](=O)[O-])c(O)c([N+](=O)[O-])c1 | inactive: 1.3%
80 | O=[N+]([O-])c1cc([N+](=O)[O-])c(Nc2nnnn2CCO)c([N+](=O)[O-])c1 | inactive: 0.2%
81 | CCOC(=O)C(CC)C1=NC(C)(C)Cc2ccccc21.O=[N+]([O-])c1cc([N+](=O)[O-])c(O)c([N+](=O)[O-])c1 (stereo not given) | inactive: -11.3%
82 | CN1CCCCC1COC(=O)C1(O)c2ccccc2CCc2ccccc21 (stereo not given) | inactive: -13.4%
83 | COc1ccccc1OP(C)(=O)Nc1c(C)cccc1C (stereo not given) | inactive: -6.7%
84 | CP(=O)(Nc1ccc(SC(F)(F)F)cc1)Oc1ccccc1 (stereo not given) | inactive: 7.1%
85 | CCCOc1ccc(NP(C)(=O)Oc2ccc(Cl)cc2)cc1 (stereo not given) | inactive: 7%
